Results published in patent US20060104902A1, “Method of preselection patients for anti-VEGF, anti-HIF-1 or anti-thioredoxin therapy” (priority 2004, published 2006).

Legend:
[1] = system: HT-29 tumor xenografts; test: DCE-MRI with Gd-BSA: tumor vascular permeability and vascular volume fraction; assay type: in vivo, SCID mice; conditions: for vascular volume fraction VVf (%): HT-29, mean
[2] = system: HIF-1α and VEGF; conditions: previous studies; cited from earlier work
[3] = system: A-549 non small cell lung cancer xenografts; test: Antitumor study, tumor xenograft growth; conditions: PX-478 100 mg/kg ip daily for 5 days
[4] = system: HT-29 human colon cancer xenografts; test: Antitumor study, tumor xenograft growth; conditions: PX-478 80 mg/kg ip daily for 5 days
[5] = system: HT-29 tumor xenografts; test: DW-MRI of tumor water diffusion (ADCw); conditions: PX-478 125 mg/kg i.p.
[6] = system: A-549 tumor; test: DCE-MRI with Gd-BSA: tumor vascular permeability and vascular volume fraction (negative control tumor)

NC(Cc1ccc([N+]([O-])(CCCl)CCCl)cc1)C(=O)O (centres unmarked)
vascular volume fraction VVf (%) ([1]; 2 h post-Tx): 7.5% | vascular volume fraction VVf (%) ([1]; 12 h post-Tx): 5.7% | mean reduction in permeability ([1]; 24 hours post-treatment, PX-478 125 mg/kg i.p.): 55.0% | vascular volume fraction VVf (%) ([1]; 24 h post-Tx): 6.6% | change in permeability (return to control values) ([1]; 48 hours, PX-478 125 mg/kg i.p., not significant): +3.9% | vascular volume fraction VVf (%) ([1]; 48 h post-Tx): 6.6% | decrease in permeability ([1]; about 12 hours after PX-478 125 mg/kg i.p.): about 72.4% | vascular volume fraction of the tumor, control vs treated ([1]; any time point (2-48 h), PX-478 125 mg/kg i.p.): not significantly modified | mean reduction in tumor blood vessel permeability compared to control tumors ([1]; within 2 hours after PX-478 125 mg/kg i.p.): 73.3% | HIF-1α and VEGF levels in HT-29 tumors, onset of decrease [2]: decreased within two hours | HIF-1α and VEGF levels in HT-29 tumors, recovery [2]: returned to control values by 8 hours | growth inhibition [3]: no growth inhibition | calculated log cell kill [4]: 1.6 | tumor growth delay [4]: 16 days | increase in mean relative tumor ADCw ([5]; 24 hours post-treatment, treated vs control): +94.5% | increase in mean relative tumor ADCw ([5]; 36 hours post-treatment): +38.4% | change in mean tumor ADCw ([5]; 48 h post-treatment, non significant): +2.5% | ADCw values, control vs treated groups ([5]; early time points (2 and 12 h)): not significantly different | vascular volume fraction VVf (%) ([6]; 2 h post-Tx, A-549, mean): 6.0% | change in vascular volume fraction ([6]; two hours after PX-478 125 mg/kg i.p.): No significant change
